Laboratory results: patent US11213543B2, “Human gastrointestinal microbiome modulating composition and methods of use” (priority 2011, dated 2022)

## CN(C)C(=N)N=C(N)N [metformin]
First 10 days of treatment, metformin, FORMULA A added on day 9
  blood sugar and its variance (standard deviation): 344 ± 44.1 mg/dL
Metformin 1000 mg twice a day alone, over 9 days, 375 mg/dL at diagnosis
  fasting blood sugar: about 325 mg/dL
